# Laboratory results: ChEMBL document CHEMBL1649099, “Identification of potent and selective glucosylceramide synthase inhibitors from a library of N-alkylated iminosugars” (ACS Med Chem Lett, 2011)
# The chains behind the UniProt entries cited, without tags or fusion partners.
# UniProt B5THE3, whole entry: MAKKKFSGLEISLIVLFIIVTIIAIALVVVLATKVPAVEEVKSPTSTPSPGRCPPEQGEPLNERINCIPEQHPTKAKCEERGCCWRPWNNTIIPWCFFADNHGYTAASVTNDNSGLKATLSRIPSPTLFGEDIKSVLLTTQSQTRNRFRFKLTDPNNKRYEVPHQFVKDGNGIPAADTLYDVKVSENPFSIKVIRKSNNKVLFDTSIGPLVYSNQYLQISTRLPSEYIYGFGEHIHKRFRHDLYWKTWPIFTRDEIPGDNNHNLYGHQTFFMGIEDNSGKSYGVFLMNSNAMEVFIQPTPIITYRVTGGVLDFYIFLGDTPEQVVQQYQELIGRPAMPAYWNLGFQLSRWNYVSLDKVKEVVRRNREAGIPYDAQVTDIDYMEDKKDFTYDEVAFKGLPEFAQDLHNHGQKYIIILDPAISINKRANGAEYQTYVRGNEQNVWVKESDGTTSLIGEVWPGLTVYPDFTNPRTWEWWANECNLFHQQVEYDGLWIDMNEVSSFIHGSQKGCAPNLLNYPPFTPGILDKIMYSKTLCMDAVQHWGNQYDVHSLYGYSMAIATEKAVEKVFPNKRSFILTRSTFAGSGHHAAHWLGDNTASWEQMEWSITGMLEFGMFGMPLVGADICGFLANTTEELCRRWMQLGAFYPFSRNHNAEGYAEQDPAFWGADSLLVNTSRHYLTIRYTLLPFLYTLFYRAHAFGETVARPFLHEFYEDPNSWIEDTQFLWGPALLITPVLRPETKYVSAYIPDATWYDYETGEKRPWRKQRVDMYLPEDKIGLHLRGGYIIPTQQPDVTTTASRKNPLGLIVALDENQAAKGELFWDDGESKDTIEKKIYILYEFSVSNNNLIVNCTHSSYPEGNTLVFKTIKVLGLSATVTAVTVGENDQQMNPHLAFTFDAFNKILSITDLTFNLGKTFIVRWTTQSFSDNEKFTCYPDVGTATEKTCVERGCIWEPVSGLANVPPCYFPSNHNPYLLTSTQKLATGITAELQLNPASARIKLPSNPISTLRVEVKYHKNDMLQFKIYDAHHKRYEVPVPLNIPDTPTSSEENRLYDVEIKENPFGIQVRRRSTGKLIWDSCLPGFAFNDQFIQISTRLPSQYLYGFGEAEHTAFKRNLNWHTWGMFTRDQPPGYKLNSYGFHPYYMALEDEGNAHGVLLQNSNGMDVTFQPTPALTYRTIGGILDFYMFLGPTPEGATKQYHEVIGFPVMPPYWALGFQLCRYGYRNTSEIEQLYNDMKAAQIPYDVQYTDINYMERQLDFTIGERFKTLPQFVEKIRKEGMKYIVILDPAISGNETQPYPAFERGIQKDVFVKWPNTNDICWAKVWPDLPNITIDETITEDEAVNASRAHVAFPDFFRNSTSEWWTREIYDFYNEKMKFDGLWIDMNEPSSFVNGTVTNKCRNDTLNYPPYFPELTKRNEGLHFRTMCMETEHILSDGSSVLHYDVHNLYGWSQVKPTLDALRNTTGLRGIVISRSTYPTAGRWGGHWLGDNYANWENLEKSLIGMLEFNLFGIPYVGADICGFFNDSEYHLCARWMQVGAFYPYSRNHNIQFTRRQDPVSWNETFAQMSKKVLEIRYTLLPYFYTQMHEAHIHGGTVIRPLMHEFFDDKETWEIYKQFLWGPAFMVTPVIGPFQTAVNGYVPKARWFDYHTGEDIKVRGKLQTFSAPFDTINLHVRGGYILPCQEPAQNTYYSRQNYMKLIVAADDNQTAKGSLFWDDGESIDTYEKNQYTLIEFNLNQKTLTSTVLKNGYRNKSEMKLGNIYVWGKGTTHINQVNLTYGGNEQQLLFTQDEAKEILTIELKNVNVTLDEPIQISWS
# Assays:
# [1] = target: Sucrase-isomaltase (Mus musculus, UniProt B5THE3); assay: Inhibition of sucrase in mouse intestinal […] by glucose release assay
# [2] = target: T1, Ceramide glucosyltransferase (Mus musculus, UniProt O88693); assay: Inhibition of glucosylceramide synthase in mouse RAW cells preincubated with compound for 15 mins by in-situ enzyme inhibition assay; format: cell-based
# T1 sequence (O88693 whole entry): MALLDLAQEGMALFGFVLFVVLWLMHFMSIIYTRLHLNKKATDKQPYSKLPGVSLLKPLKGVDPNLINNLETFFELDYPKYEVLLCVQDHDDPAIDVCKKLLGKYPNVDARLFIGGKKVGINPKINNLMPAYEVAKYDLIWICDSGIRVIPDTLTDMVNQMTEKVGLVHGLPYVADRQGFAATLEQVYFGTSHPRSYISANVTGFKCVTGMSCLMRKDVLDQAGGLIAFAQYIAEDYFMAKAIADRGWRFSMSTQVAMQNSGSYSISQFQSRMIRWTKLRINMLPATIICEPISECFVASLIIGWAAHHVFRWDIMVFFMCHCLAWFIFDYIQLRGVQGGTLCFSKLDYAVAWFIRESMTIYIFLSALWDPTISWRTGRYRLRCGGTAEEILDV
IC50 [1],IC50 [2],SMILES
> 1000 µM,–,OC[C@H]1[C@@H](O)[C@H](O)[C@@H](O)CN1CCCCCOCC12CC3CC(CC(C3)C1)C2
–,4 µM,CCCCCCCCCN1C[C@H](O)[C@@H](O)[C@H](O)[C@H]1CO
–,2 µM,CCCCCCCCCN1C[C@H](O)[C@@H](O)[C@H](O)[C@@H]1CO
0.5 µM,–,OC[C@@H]1[C@@H](O)[C@H](O)[C@@H](O)CN1CCCCCOCC12CC3CC(CC(C3)C1)C2
